From US20260382588A1, “COMPOUNDS CONTAINING A HYDROXYPHENYL MOIETY AND THEIR USE” (published 2026) come the findings set out here.

In this test the test system is U87-luc orthotopic GB tumors. Kind of test: Orthotopic U87-luc GB mouse model: tumor growth, survival and relapse. As to conditions: TMZ alone 10 mg/kg, over 200 days (FIG. 5D). The text has this: Tumor cell orthotopic implantation—Tumor cells (U87-Luc (A. Jabouille, et al., Oncotarget, 2015, 6, 24922-24934)) were implanted into the brain of immunodeficient NMRI-Foxnlnu/Foxn1nu, 8 weeks old male mice (Janvier Laboratories, Laval, France). All animal procedures met the European Community Directive guidelines (Agreement B35-238-40 Biosit Rennes, France/No DIR 13480) and were approved by the local (University of Rennes) ethics committee and ensuring the breeding and the daily monitoring of the animals in the best conditions of wellbeing according to the law and the rule of 3R (Reduce-Refine-Replace). U87-Luc cells were implanted in the mouse brain by intracerebral injection followed by tumor growth monitoring using bioluminescence (PhotonIMAGER™ systems, BIOSPACE LAB). The mice were anesthetized intraperitoneally (i.p. mix Xylazine 10 mg/kg and Ketamin 60 mg/kg) and then fixed on a stereotactic frame. This framework makes it possible to manipulate the brains of living animals, and to reach isolated areas of the brain precisely relative to markings visible to the naked eye through the use of three-dimensional coordinates. After incising the scalp, the stereotaxic coordinates were calculated for injection of tumor cells into a specific point of the brain, and reproducible for all the mice used. In the study, the tumor cells (5×10^4 cells per mice in 1 μL) were injected at Bregma 0, 2.2 mm to the left of the bregma and 3.2 mm deep to perform the implantation at the level of the striatum.
Mouse treatments—Four days after tumor cells implantation, compound 28 (Z4P) treatments were started consisting in treatments of 300 μg/kg/day intraperitonially. For the RNA quantification experiment, performed on tumors generated in mice, three mice per group were treated according to the methods above. Mice were sacrificed at day 34 and the brains were removed and extract the tumor. The samples were used to extract RNA for the analysis, as described below.
For the survival experiment, performed on tumors generated in mice, co-treatment with TMZ was performed one week after the beginning of compound 33 (Z4) treatment (n=7 per group for the TMZ and COMBO, n=8 per group for the control and compound 28 (Z4P)). The animals were injected with 10 mg/kg/day of TMZ delivered intraperitoneally for ten days. All the treatments were performed with 2 days of rest each week. Survival was measured as the time between implantation and sacrifice, which was performed by cervical dislocation in case of critical clinical signs or loss of weight >10%.
Bioluminescence monitoring—Mice were evaluated with in vivo bioluminescence imaging every 3 days starting from the day 4, for the first week, and weekly onward for tumor progression and followed for signs of neurologic deterioration daily. […]

Structures are written as SMILES.

As to `Cn1nnc2c(C(N)=O)ncn2c1=O`, the “tumor relapse, TMZ alone” value is “relapsed”.
